Reference: PubChem BioAssay AID868 (SRMLSC, 2007)
Only a part is listed here, and it is no random draw. Some results for these compounds are left out of this collection, so the calls shown say nothing about other tests. Calls of active or inactive are those of the source.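 The calls were made as follows: active = inhibition above a set limit, 3 SD over mean compound inhibition (cut at about 8.4% in these data); inactive = the rest.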

experiment: inhibitors of the yeast RAM network, primary screen, dse1pr::URA3 reporter, 5-FOA selection (AID 868);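 also: 0% = DMSO-only wells with no growth and 100% = 10 µM 1-NA-PP1 full growth; inhibition rescues growth on 5-FOA so higher OD means more RAM inhibition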; settings: S. cerevisiae dse1pr::URA3 reporter, 5-FOA growth OD615, 2 d; at 50 µM; active compounds read high; analog-sensitive cbk1-as2 kinase mutant strain

Structure (SMILES) | inhibition
CN(C)c1cccc(C(=O)NCC2(N(C)C)CCCCC2)c1 | inactive: 0.91%
O=C(OC1CN2CCC1CC2)C(CO)(c1ccccc1)c1ccccc1 (centres undefined) | inactive: 1.46%
COc1cccc(C(=O)NCC2(N3CCCCC3)CCCCC2)c1 | inactive: 0.5%
CCN1CCCC(OC(=O)C2(O)c3ccccc3C=Cc3ccccc32)C1 (centres undefined) | inactive: 0.96%
C=CCN1CCN(CCOC(=O)C(O)(c2ccccc2)c2ccccc2)CC1 | inactive: 2.84%
CN(C)C1CCCC1OC(=O)C(O)(c1ccccc1)c1ccccc1 (centres undefined) | inactive: 0.12%
Cc1ccccc1C(=O)NCC1(N2CCCCC2)CCCCC1 | inactive: 1.73%
CC(C)N1C(=O)CC2(CCN(CCOC(=O)C(O)(c3ccccc3)c3ccccc3)CC2)C1=O | inactive: 1.62%
O=C(NCC1(N2CCCCC2)CCCCC1)c1cc([N+](=O)[O-])ccc1Cl | inactive: -1.36%
